# Measurements: ChEMBL document CHEMBL3407349, “The discovery of Polo-like kinase 4 inhibitors: identification of (1R,2S).2-(3-((E).4-(((cis).2,6-dimethylmorpholino)methyl)styryl). 1H.indazol-6-yl)-5'-methoxyspiro[cyclopropane-1,3'-indolin]-2'-one (CFI-400945) as a potent, orally active antitumor agent” (J Med Chem, 2015)
# Key:
# [1] = species: Rattus norvegicus
# [2] = species: Canis familiaris
structure (smiles),measurement,setting,value
COc1ccc2c(c1)[C@]1(C[C@H]1c1ccc3c(/C=C/c4ccc(CN5CCOCC5)cc4)n[nH]c3c1)C(=O)N2C,clearance,[1],1.9 L/h/kg
same,clearance,[2],1.6 L/h/kg
